Laboratory results published in PubChem BioAssay AID1478 (National Center for Advancing Translational Sciences (NCATS), 2009).
This is a selection; strong and weak results do not stand in their true shares. Some results for these compounds are left out of this collection, so the calls shown say nothing about other tests. Active and inactive are the calls of the source. The call rests on the fitted dose curve; in most records, active means well fitted inhibition curve with a large enough effect; inconclusive means small, poorly fitted or top-dose-only effect; inactive means flat fitted curve, though single readings scatter.

Chains of the proteins cited; added tags and fusions are not shown. Residues count along the entry.
UniProt P25779, 123-467 limits assumed: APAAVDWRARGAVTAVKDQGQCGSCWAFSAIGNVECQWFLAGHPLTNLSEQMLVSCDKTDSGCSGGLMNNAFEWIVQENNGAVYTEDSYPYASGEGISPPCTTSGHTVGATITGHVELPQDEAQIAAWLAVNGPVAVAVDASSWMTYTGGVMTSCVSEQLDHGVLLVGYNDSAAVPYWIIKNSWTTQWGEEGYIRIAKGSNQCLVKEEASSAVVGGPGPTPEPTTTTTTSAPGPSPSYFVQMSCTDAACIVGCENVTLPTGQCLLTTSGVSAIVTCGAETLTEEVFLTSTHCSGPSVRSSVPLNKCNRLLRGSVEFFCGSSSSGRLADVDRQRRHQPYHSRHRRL

These compounds were tested against Cruzipain (Trypanosoma cruzi) (UniProt P25779) (assay: qHTS Assay for Promiscuous and Specific Inhibitors of Cruzain (with detergent)). Settings: purified cruzain, Z-FR-AMC fluorescence, 0.01% Triton.
Protocol: Cruzain (3.4.22.51) is a cysteine protease from the tropical parasite Trypanosoma cruzi. Dual qHTS experiment was performed against the NCGC compound collection in order to 1) identify novel inhibitors of the enzyme and 2) profile the compound collection for promiscuous inhibitors operating via colloidal aggregation (by performing detergent-free and detergent-containing comparison screens). Cruzain was assayed by the use of fluorogenic coumarin-based substrate Z-FR-AMC: proteolytic cleavage releases AMC, whose fluorescence is measured at 360 nm excitation and 450 nm emission. Purified cruzain was supplied by the labs of Prof. James McKerrow and Brian Shoichet, UC San Francisco.
This assay had 0.01% Triton X-100 concentration. See also releated assay "qHTS Assay for Promiscuous and Specific Inhibitors of Cruzain (without detergent)" with 0.00005% Triton X-100.
See following references for additional details:
Assay Provider: Shoichet, Brian; University of California, San Fancisco
Screening Center PI: Austin, C.P.
Screening Center: NIH Chemical Genomics Center [NCGC]
Buffer: 100 mM Sodium Acetate, pH 5.5, 5 mM DTT, Triton X-100 concentration: 0.01%.
Buffer in columns 3 and 4 as negative control (no enzyme).
Substrate solution: 2 uM final concentration of Z-FR-AMC (catalog number I-1160, Bachem) dispensed throughout the plate.
Enzyme: 1.5 nM Cruzain final concentration in columns 1, 2, 5-48. Column 1 is neutral (100% activity). Column 2 contained titration of covalent inhibitor K11777, starting concentration 1 mM, then 1:2 dilution in duplicate).
Three uL of enzyme or buffer were dispensed to 1536-well Greiner black solid bottom plates. Compounds and controls (23 nL) were transferred via Kalypsys PinTool. The plates were incubated for 15 min at room temperature, and then 1 uL of substrate solution was added to start the reaction. The plates were immediately transferred to and read 4 times every 30 seconds for 2 min on ViewLux High-throughput CCD imager (Perkin-Elmer) using 360 nm excitation and 450 nm emission fluorescence protocol. The fluorescence intensity difference between the third and the first time points (time lapse of 60 seconds) was used to compute reaction progress.
Further: nearly all actives have a fitted effect of over 40% in size.

SMILES	max response, negative = inhibition
CCOc1cccc(C(=O)NCC2(N(C)C)CCCCC2)c1	inactive: -0.583%
CCN1CCCC(OC(=O)C2(O)c3ccccc3C=Cc3ccccc32)C1 (centres undefined)	inactive: 0.79%
CN(C)C1CCCC1OC(=O)C(O)(c1ccccc1)c1ccccc1 (centres undefined)	inactive: 2.1%
CN(C)C1(CNC(=O)c2ccccc2[N+](=O)[O-])CCCCC1	inactive: -0.937%
CCCCOc1ccccc1C(=O)NCC1(N(C)C)CCCCC1	inactive: -1.05%
CN(C)C1(CNC(=O)c2cccc(Cl)c2)CCCCC1	inactive: -1.76%
CC(C)N1C(=O)CC2(CCN(CCOC(=O)C(O)(c3ccccc3)c3ccccc3)CC2)C1=O	inactive: 0.359%
CN(C)C1(CNC(=O)c2ccccc2F)CCCCC1	inactive: 0.12%
COc1cc(C(=O)NCC2(N(C)C)CCCCC2)cc(OC)c1OC	inactive: -0.462%
Cc1cccc(C(=O)NCC2(N(C)C)CCCCC2)c1	inactive: -1.52%
CC(C)Oc1ccc(C(=O)NCC2(N(C)C)CCCCC2)cc1	inactive: -0.346%
CN(C)c1cccc(C(=O)NCC2(N(C)C)CCCCC2)c1	inactive: 9.79%
COc1cccc(C(=O)NCC2(N3CCOCC3)CCCCC2)c1	inactive: 2.23%
CN1CCC[C@H](OC(=O)[C@](O)(c2ccccc2)C2CCCC2)C1	inactive: 0.0861%
CN1CC[C@H](OC(=O)[C@](O)(c2ccccc2)C2CCCC2)C1	inactive: -4.33%
O=C(OC1CN2CCC1CC2)C(CO)(c1ccccc1)c1ccccc1 (centres undefined)	inactive: 9.54%
CC(C)COc1ccc(C(=O)NCC2(N(C)C)CCCCC2)cc1	inactive: -3.49%
C=C(C)C#C[C@@](O)(C(=O)OC1CCN(C)CC1)c1ccccc1	inactive: 0.684%
COc1ccc(C(=O)NCC2(N(C)C)CCCCC2)cc1Cl	inactive: -1.13%
